These results are taken from patent publication US9730795B2, “Endosseous implant” (UNIVERSITE DE GENEVE, priority 2000, dated 2017).

The test system of this experiment is rat bone building cells, osteoblasts. As to the kind of experiment: Osteogenesis (cell proliferation and bone protein synthesis) of rat osteoblasts plated on treated titanium implants. The format is cell-based. Conditions: compared with Table 1 / non treated implant.

B1: 5: ethane-1,1,3-triphosphonic acid modified by linking the amine terminus (Methionine) of human Bone Morphogenic Protein type 2 (BMP-2) to one phosphonate group (conjugate, UniProt P12643 283-396, looked up)
Bone morphogenetic protein 2: QAKHKQRKRLKSSCKRHPLYVDFSDVGWNDWIVAPPGYHAFYCHGECPFPLADHLNSTNHAIVQTLVNSVNSKIPKACCVPTELSAISMLYLDENEKVVLKNYQDMVVEGCGCR
modifications: N-terminal ethane-1,1,3-triphosphonic acid conjugate
notes: ethane-1,1,3-triphosphonic acid modified by linking the amine terminus (Methionine) of human Bone Morphogenic Protein type 2 (BMP-2) to one phosphonate group
In the case of B1, the “Osteogenesis (cell proliferation and bone protein synthesis), result in words” value is recorded as “analogous test results as given in Table 1”.
